Target: Cannabinoid receptor 1 (Homo sapiens, UniProt P21554)
Experiment: Displacement of [3H]CP 55940 from human CB1 receptor in cell free system

Protein sequences, listed by entry. Tags and fused reporters are not part of them.
UniProt P21554, whole entry: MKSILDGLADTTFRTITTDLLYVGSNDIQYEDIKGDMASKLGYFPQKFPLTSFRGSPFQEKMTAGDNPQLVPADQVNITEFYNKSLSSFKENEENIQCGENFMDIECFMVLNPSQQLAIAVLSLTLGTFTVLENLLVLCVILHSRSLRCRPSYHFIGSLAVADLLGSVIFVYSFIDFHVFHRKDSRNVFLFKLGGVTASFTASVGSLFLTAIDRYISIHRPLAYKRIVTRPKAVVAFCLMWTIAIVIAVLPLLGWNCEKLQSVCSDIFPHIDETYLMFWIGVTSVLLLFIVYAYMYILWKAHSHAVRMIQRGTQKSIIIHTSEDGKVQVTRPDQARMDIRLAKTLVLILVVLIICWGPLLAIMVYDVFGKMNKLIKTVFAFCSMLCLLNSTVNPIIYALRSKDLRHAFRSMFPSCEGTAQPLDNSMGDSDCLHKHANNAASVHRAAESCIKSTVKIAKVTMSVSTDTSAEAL

SMILES: Cc1ccc(Cn2nc(C(=O)N[C@@H]3C(C)(C)[C@@H]4CC[C@@]3(C)C4)cc2-c2ccc(Cl)c(C)c2)cc1 [SR-144528]
- Ki: 2890 nM

From ChEMBL document CHEMBL1667752 (Eur J Med Chem, 2011)
